Apparent affinities of Ab-14 variants for a coronavirus HR2 peptide

The target is the same throughout: PDVDLGDISGINAS, from the HR2 region of SARS-CoV-2 spike.

Each scFv is VH, a (GGGGS)3 linker, VL, as in the parent Ab-14, and differs from it in the CDRs of the light chain only.
VH: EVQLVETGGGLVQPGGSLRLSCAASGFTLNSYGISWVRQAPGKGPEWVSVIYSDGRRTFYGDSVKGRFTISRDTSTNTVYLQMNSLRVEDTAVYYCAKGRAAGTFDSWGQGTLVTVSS
VL: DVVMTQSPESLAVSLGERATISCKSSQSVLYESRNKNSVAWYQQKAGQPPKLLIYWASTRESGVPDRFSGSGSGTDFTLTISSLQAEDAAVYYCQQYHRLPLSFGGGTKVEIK

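The parent was found by panning a naive human phage display library on the peptide. Designed CDR sequences, proposed from the first random library and measured here. Group labels follow the data file (Ctrl: baseline library sampled from a position-specific scoring matrix, with some repeated check sequences; En: ensemble of fine-tuned language models; GP: Gaussian process model; HC: hill climbing; Gen: genetic algorithm; Gibbs: Gibbs sampling; a sequence that several methods proposed may carry one label only). The assay is AlphaSeq: two haploid yeast populations carry antibody and antigen on their surface. After mating in shaken culture at 30 °C for 16 h, diploids were selected and their barcode pairs sequenced. Scores were corrected for input abundance and mapped to Kd with protein pairs of known affinity run in the same pool. Mating was done six times.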

Variants are written as CDR1, CDR2 and CDR3 of the light chain (limits as in the source). Parent: KSSQSVLYESRNKNSVA, WASTRES, QQYHRLPLS.
Values are apparent Kd, the geometric mean of the replicates that gave a signal; lower means stronger binding.
An entry "nd" has no value in the source: the pair was not observed among the diploids in any replicate. This suggests poor binding but is not conclusive.
The range of this assay differs from that of the first round, and the authors advise against merging the two.
As a blank, each scFv also met three strains without target: over all light chain designs, 4% of these pairings were detected, typically at 430 nM and seldom below 38 nM.
The parent sequence was in this pool as ten entries: three were never detected, three once, and four in most replicates, with averages from 2.2 nM to 240 nM.
In the paper, a design with two or fewer of six values counts as a poor binder.

Variant KSSQSCLYESRNKNSVA, WASTRES, QQYHRLPCT [Ctrl] gave nd (0 of 6 replicates).
Variant TIGQSTLMESRNKNNVA, QMSTREK, QQYDRLPLS [En_HC] gave nd (0 of 6 replicates).
Variant HISYSMAHLSKNHNSVA, NQQTRES, QQYHRLPLS [En_HC] gave 8.1 nM (6 of 6 replicates).
Variant KSSQSVLYESTNKQSVA, HASTRES, QQYHRLPTS [Ctrl] gave 310 nM (2 of 6 replicates).
Variant KMSQSVLEESRDKNSVA, QASTRES, QQYHRLLLS [Ctrl] gave 1.2 nM (6 of 6 replicates).
Variant KLSQSHLYESRNKNSVA, AASTRES, QQYHRLPLS [GP_Gen] gave 2.1 nM (6 of 6 replicates).
Variant KLGDMVHTMSRNKNSIA, DMRTRES, QQYYRLPLS [En_HC] gave 1.0 nM (6 of 6 replicates).
Variant TISQVMNTLTREGNNVA, DLAERES, QQYFRLPLS [En_Gen] gave 4.6 nM (6 of 6 replicates).
Variant HSNGNLRMGERNKNHVA, STDVRES, QQYSRLPLT [En_Gibbs] gave 11 nM (6 of 6 replicates).
Variant KLDLENGEEDKKGQNIA, EASTAGD, QSYWRLPLS [En_Gibbs] gave 40 nM (4 of 6 replicates).
Variant KLSQSVLYEERNKNSVA, WASTRES, QQCHRLPLS [Ctrl] gave 870 nM (1 of 6 replicates).
Variant KLSISGVHESIDKKSIA, ERSTREN, QQYHRLPLS [En_HC] gave 2.9 nM (6 of 6 replicates).
Variant KSSQSVLYESRNKNAVA, GASTRET, QQYHRLPLS [Ctrl] gave 3.1 nM (6 of 6 replicates).
Variant KLSQSWLYESRMKNNVA, NASTRES, QQYHRLPLS [GP_Gen] gave 1.2 nM (6 of 6 replicates).
Variant KFSQSVCYESRTKNSVA, NASTRES, QQYHRLPLS [GP_HC] gave 430 pM (6 of 6 replicates).
Variant KVSQSVLYESGTKNSVA, NASQRES, TQYHRLPLS [GP_HC] gave 1.8 nM (6 of 6 replicates).
Variant STLSHEEESKGADASVA, EASMLES, QQYHRLPLD [En_Gibbs] gave 14 nM (6 of 6 replicates).
Variant SLMQVGGYESNQKNSIA, DLRTRES, QQYHRLPLS [En_HC] gave 4.9 nM (6 of 6 replicates).
Variant MLDQMDGQMGGNTNNIA, GVVESRI, QQYHRLPLS [En_Gibbs] gave 75 nM (6 of 6 replicates).
Variant KLEQGDLMESRNKNSVA, HASHRES, QQYHRLPLS [GP_Gibbs] gave 2.0 nM (6 of 6 replicates).

Second part, the sequence after the result:

Read-out 1.1 nM (6 of 6 replicates), from KLSQSALYESRNKNSVA, GGSTRES, QQYHRLPLS [GP_HC].
Read-out nd (0 of 6 replicates), from TLSGHQYNNSQKKNSIA, EDNNIRL, QQYHRLPFM [En_Gibbs].
Read-out 11 nM (6 of 6 replicates), from KLTQVTHSEHRNKNSIA, EMVTREK, QQYDRLPLS [En_HC].
Read-out 920 pM (6 of 6 replicates), from KMSQSYHYESRNKNSVA, GASTRES, QQYHRLPLS [GP_HC].
Read-out 15 nM (6 of 6 replicates), from KLRQLTHVESFNKNNVA, EMTTRES, QSYDRLPLS [En_HC].
Read-out 150 nM (6 of 6 replicates), from KIGQMTTYHSQVGNSIA, QTSTREE, QQYHRLPLS [En_HC].
Read-out 360 pM (6 of 6 replicates), from KFSQSWLYESRNKNSVA, NASQREQ, QQYHRLPLS [GP_Gen].
Read-out 2.1 nM (6 of 6 replicates), from ALELFEYQIMKDLNSIA, NTETKTN, QQYVRLPFS [En_Gibbs].
Read-out 27 nM (5 of 6 replicates), from HISYSMQHLSKNKNSVA, NQQTRES, QQYHHLPLS [En_HC].
Read-out 2.2 nM (6 of 6 replicates), from RLTEHTYMRAYANAAVA, DASTRND, QQYHRLPLE [En_Gibbs].
Read-out 2.2 nM (6 of 6 replicates), from KFMQSMGYESRNKNSVA, EASTRSS, QQYHRLPLS [GP_Gibbs].
Read-out 39 nM (6 of 6 replicates), from TIGGTLMFGMRNRSNVA, EVSQRLN, QQYDRLPLM [En_Gen].
Read-out 29 nM (6 of 6 replicates), from TISQLMNMGQFAINSVA, QASIRNH, QQYDRLPLI [En_Gen].
Read-out 1.3 nM (6 of 6 replicates), from KLQQQAEMESRVKNSVA, QASTRES, QQYHRLPLS [GP_Gibbs].
Read-out 1.2 nM (6 of 6 replicates), from MISDLTMYGSRNKNSVA, DLSTRGK, QQYHRLPLS [En_HC].
Read-out 3.6 nM (6 of 6 replicates), from MMHLCQNGYYQQNNNIA, DMNERMM, QQYGRLPLM [En_Gibbs].
Read-out 16 nM (6 of 6 replicates), from NLGGLDFNSTYEMKAVA, DVSEVGE, QHYSRLPLS [En_Gibbs].
Read-out 1.4 nM (6 of 6 replicates), from KLSQSVLYESTNSQSVA, DASTRYS, QQYHRLPLS [GP_Gibbs].
Read-out 100 nM (6 of 6 replicates), from ALHAQNLQNMDNLNSIA, EQNQTQE, QQYFRLPFA [En_Gibbs].
Read-out 1.2 nM (6 of 6 replicates), from KVYQSNGYESRNDNNVA, NASLRES, QQYHRLPLS [GP_Gibbs].
Read-out 1.2 nM (6 of 6 replicates), from KLSQSTLYDSQNKNSVA, QASTRES, QQYHRLPLS [GP_HC].

For reference, 5 entries of the list once more:

| CDR-L1 | CDR-L2 | CDR-L3 | group | Kd | detected |
|---|---|---|---|---|---|
| STLSHEEESKGADASVA | EASMLES | QQYHRLPLD | En_Gibbs | 14 nM | 6/6 |
| TISQVMNTLTREGNNVA | DLAERES | QQYFRLPLS | En_Gen | 4.6 nM | 6/6 |
| KLQQQAEMESRVKNSVA | QASTRES | QQYHRLPLS | GP_Gibbs | 1.3 nM | 6/6 |
| KLSQSVLYESTNSQSVA | DASTRYS | QQYHRLPLS | GP_Gibbs | 1.4 nM | 6/6 |
| TIGGTLMFGMRNRSNVA | EVSQRLN | QQYDRLPLM | En_Gen | 39 nM | 6/6 |

From the AlphaSeq antibody data of Li et al. 2023 (doi:10.1038/s41467-023-39022-2), copy in the FLAb collection.